This is an account of results in ChEMBL document CHEMBL1157122, “The contribution of a 2-amino group on receptor tyrosine kinase inhibition and antiangiogenic activity in 4-anilinosubstituted pyrrolo[2,3-d]pyrimidines” (Bioorg Med Chem Lett, 2010).

The chains behind the UniProt entries cited, without tags or fusion partners.
UniProt P09619, whole entry: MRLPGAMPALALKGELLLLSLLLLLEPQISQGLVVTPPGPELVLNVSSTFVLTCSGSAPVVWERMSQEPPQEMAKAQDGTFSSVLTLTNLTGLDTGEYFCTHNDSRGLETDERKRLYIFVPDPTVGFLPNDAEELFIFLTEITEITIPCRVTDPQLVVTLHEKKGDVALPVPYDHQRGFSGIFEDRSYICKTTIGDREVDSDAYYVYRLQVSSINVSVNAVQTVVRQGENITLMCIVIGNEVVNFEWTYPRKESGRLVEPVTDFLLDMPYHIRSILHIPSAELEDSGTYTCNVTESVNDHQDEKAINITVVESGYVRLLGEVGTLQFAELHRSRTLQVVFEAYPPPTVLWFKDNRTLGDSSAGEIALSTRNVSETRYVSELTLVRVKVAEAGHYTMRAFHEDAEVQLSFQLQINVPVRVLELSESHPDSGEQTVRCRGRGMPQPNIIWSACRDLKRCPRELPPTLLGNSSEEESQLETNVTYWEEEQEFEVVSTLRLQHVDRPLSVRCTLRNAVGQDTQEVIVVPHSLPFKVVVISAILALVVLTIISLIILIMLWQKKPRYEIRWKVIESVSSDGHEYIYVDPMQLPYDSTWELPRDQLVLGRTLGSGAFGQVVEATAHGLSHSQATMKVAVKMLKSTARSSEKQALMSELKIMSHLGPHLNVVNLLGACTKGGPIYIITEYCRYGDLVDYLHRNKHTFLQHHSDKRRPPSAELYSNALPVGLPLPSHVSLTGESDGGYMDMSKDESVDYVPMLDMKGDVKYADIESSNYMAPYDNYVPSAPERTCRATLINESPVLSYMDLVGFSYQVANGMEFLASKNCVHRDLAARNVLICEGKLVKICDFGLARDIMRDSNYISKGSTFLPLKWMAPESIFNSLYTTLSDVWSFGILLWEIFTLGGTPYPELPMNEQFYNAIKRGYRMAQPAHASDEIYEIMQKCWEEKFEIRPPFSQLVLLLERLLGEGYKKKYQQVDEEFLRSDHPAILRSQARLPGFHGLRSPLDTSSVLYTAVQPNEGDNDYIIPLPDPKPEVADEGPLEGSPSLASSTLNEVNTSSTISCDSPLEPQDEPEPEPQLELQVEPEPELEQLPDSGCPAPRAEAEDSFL

Molecules are shown by their SMILES.

The test deals with Platelet-derived growth factor receptor beta (Homo sapiens, UniProt P09619). Put plainly: Inhibition of PDGFRbeta.

One may read the IC50 as the concentration that inhibits the measured activity by half. Higher therefore signals a need for much substance. With `Cc1cc2ncc(-c3ccccc3)nc2cc1C` [AG1295], half-maximal inhibition (IC50) required 6.5 µM.
